{"source": "patent US20050260737A1", "about": "“Novel lipase gene from Bacillus sphaericus 205y” (priority 2004, published 2005)", "test_system": "isolate 205y", "test": "Growth of isolate 205y in different organic solvents and concentrations", "assay_type": "cell-based, Bacillus sphaericus 205y", "design": "Growth of isolate 205y: key to the marks not given beside the values", "details": "for Growth of isolate 205y: growth visually determined", "protocol": "The Bacillus sphaericus 205y culture could be obtained from Enzyme and Microbial Technology Research Department of Biochemistry and Microbiology, Faculty of Science and Environmental Studies, University Putra Malaysia. One gram of soil is resuspended in 10 ml basal mineral […] supplemented with selected hydrocarbon (0.1% v/v). The basal media contained (w/v) K2HPO4 0.5%, NH4Cl (1.0%), Na2SO4 (2%), KNO3 (2%), MgSO4.7H2O (0.2%).\nSelected hydrocarbons would either be benzene, toluene or mixture of both as their sole carbon and energy source. Pure isolates were prescreened in media spiked with 1% v/v hydrocarbon. Isolates were grouped into groups of good, moderate, acceptable and negative, based on the turbidity of the media (Inoue et al., 1989). Non-inoculated controls were also used to ensure that the turbidity is due to growth.", "data": [{"smiles": "CCc1ccccc1", "note": "[Ethylbenzene]", "values": [{"measurement": "Growth of 205y in solvent (in words)", "value": "good growth"}, {"measurement": "Growth of isolate 205y", "setting": "Hydrocarbon 1% (v/v)", "value": "++"}, {"measurement": "Growth of isolate 205y", "setting": "Hydrocarbon 5% (v/v)", "value": "++"}, {"measurement": "Growth of isolate 205y", "setting": "Hydrocarbon 10% (v/v)", "value": "+++"}, {"measurement": "Growth of isolate 205y", "setting": "Hydrocarbon 25% (v/v)", "value": "++"}, {"measurement": "Growth of isolate 205y", "setting": "Hydrocarbon 50% (v/v)", "value": "++"}, {"measurement": "Growth of isolate 205y", "setting": "Hydrocarbon 75% (v/v)", "value": "++"}]}]}
